Earlier results, collected in US20100226886A1, “Combinations of MTP Inhibitors with Cholesterol Absorption Inhibitors or Interferon for Treating Hepatitis C” (priority 2007, published 2010).

Details: animal studies

In the case of `NC(=O)c1ncn([C@@H]2O[C@H](CO)[C@@H](O)[C@H]2O)n1` [ribavirin], the developmental toxicity is listed as “causes birth defects”.
